In the test the target is AzAla-labeled smMLCK peptide. The test is described as follows: other fluorescence titration.

For “calmodulin (from UniProt P0DP23 2-149) (natural protein)”, the stoichiometry N is 1.

Source of the values: paper PMC3547328.
